The record followed here is PMC12886327.

Protein sequences, listed by entry. Tags and fused reporters are not part of them. Lines headed by an entry give the natural chain unless they say otherwise; changes in a name come on top.
UniProt P41143: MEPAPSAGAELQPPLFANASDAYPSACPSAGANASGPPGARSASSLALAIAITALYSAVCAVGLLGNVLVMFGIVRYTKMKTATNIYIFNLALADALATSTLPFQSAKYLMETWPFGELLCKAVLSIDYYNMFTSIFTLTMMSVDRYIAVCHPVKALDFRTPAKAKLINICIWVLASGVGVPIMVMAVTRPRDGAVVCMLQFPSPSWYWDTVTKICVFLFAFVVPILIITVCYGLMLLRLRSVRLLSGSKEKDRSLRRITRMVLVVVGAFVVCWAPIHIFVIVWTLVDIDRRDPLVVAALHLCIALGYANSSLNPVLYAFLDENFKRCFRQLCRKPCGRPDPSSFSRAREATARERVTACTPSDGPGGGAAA

The target in the test is human DOR membrane preparation (δ-opioid receptor) (Homo sapiens, UniProt P41143). The test is described as follows: HTRF GTP Gi binding assay, DOR activation. Conditions: 95% confidence interval in parentheses.

The term EC50 denotes the concentration that produces a half-maximal response.

As for SNC-80, for the setting “efficacy relative to SNC-80”, the “DOR Emax” value is 100 (89–108) %. The EC50 (read-out: DOR EC50, potency) turned out to be 4.5 nM.
